The assay concerns circulating platelets. Description: Thrombocytopenia / clearance of circulating platelets in multiple species. The format is in vivo. The method, then:
The effect of Bcl-2 protein inhibitors on circulating platelets can be determined by administration of test compounds, preferably orally or intravenously, to an animal and analyzing a blood sample and determining the number of platelets by techniques well-known in the art. Preferably, blood samples are obtained from about 2 hours to about 48 hours after compound administration.

Consider one compound from patent publication US7842681B2, “Treatment of myeoproliferative diseases” (Abbott Laboratories, priority 2006, dated 2010).

`CC1(C)CCC(c2ccc(Cl)cc2)=C(CN2CCN(c3ccc(C(=O)NS(=O)(=O)c4ccc(N[C@H](CCN5CCOCC5)CSc5ccccc5)c(S(=O)(=O)C(F)(F)F)c4)cc3)CC2)C1` [EXAMPLE 2, N-(4-(4-((2-(4-chlorophenyl)-5,5-dimethyl-1-cyclohex-1-en-1-yl)methyl)piperazin-1-yl)benzoyl)-4-(((1R)-3-(morpholin-4-yl)-1-((phenylsulfanyl)methyl)propyl)amino)-3-((trifluoromethyl)sulfonyl)benzenesulfonamide]: the “recovery of platelet counts after treatment” value was “recovery to normal platelet counts within several days” and the thrombocytopenia result was “rapid clearance of circulating platelets”.
